{"source": "patent US12257282B2", "about": "“Mixtures and formulations” (CAMURUS AB, priority 2016, dated 2025)", "settings": "0.38 wt % EDTA in EtOH/PG (1/1 wt/wt)"}
{"substance": "Tris(hydroxymethyl)aminomethane", "values": [{"measurement": "required minimum amount of alkylamine needed to solubilize EDTA", "result": "about 5 mol per 1 mol of EDTA"}]}
